# Experimental data reported in US20160331708A1 (priority 2014, published 2016).
# Test system: Bacillus subtilis 168
# Test: Antibiotic MIC tests in microtiter plates
# Settings: MIC of streptomycin in the presence of the compound at its tested concentration (0.9-2.7 mM)
substance,measurement,value
Benzoic acid,MIC with streptomycin,31.2 µg/mL
